{"source": "paper PMC5322802", "about": "(Biochemistry, 2016)", "target": "T1, FABP1 (Mus musculus, UniProt P12710)", "T1 sequence (P12710 1-127)": "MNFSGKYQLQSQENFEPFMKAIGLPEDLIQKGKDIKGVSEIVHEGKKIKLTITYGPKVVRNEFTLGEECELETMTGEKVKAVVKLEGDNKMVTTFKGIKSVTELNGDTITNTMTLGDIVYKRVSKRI", "assay": "cis-parinaroyl-CoA displacement from FABP1", "data": [{"smiles": "CCCCC/C=C\\C/C=C\\C/C=C\\C/C=C\\CCCC(=O)NCCO", "note": "[AEA, n-6 arachidonoylethanolamide]", "values": [{"measurement": "fold stronger binding by FABP1 as compared to SCP2", "result": "≥ 3", "unit": "fold"}, {"measurement": "fold stronger binding by FABP1 as compared to FABP3, FABP5, and FABP7", "setting": "different displacement assays", "result": "8–10 fold"}]}]}
